pIC50: −log10 of the molar value.
Molecular target: T1, Tyrosinase (Mus musculus, UniProt P11344)
T1 sequence (P11344 whole entry): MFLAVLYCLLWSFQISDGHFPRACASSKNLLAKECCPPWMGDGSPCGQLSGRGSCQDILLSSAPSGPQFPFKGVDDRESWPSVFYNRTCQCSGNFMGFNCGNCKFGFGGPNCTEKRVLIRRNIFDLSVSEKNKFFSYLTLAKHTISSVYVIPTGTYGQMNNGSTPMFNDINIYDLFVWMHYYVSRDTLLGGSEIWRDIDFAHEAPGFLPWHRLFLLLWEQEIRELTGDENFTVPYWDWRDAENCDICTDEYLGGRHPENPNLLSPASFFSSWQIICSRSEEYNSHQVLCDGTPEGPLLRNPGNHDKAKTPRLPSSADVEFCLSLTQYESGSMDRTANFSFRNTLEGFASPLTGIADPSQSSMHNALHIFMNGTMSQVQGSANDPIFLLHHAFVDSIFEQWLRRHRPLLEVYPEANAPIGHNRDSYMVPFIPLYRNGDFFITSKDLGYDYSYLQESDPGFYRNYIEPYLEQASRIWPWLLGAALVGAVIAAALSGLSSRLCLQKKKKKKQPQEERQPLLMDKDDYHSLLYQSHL
Type: cell-based

O=[N+]([O-])c1ccc(-c2nc(-c3ccncc3)c(-c3ccc(F)cc3)[nH]2)cc1 [PD-169316] was tested, and the pIC50 was 7.05.

Reference: ChEMBL document CHEMBL4411257, “Inhibitors of Melanogenesis: An Updated Review” (J Med Chem, 2018)
